Key:
[1] = target: cAMP-dependent protein kinase catalytic subunit alpha [L49I,Q181K,T183A] (Bos taurus, UniProt P00517, L49I/Q181K/T183A); test: Kinase Activity Assay
Procedure: (§1) The enzyme activity was assayed by using an ATP regenerative NADH consuming system. The reaction was started with adding ATP to the mixture containing enzyme, substrate, and inhibitor. The decrease of NADH was time-dependent, and was measured at 340 nm with three independent measurements per data point. IC50 values were calculated using SigmaPlot 8.0 and Origin 5 software.

[2] = target: cAMP-dependent protein kinase catalytic subunit alpha [L49I,V123M,E127D,Q181K,T183A] (Bos taurus, UniProt P00517, E127D/L49I/Q181K/T183A/V123M); test: Kinase Activity Assay
Procedure: as §1

- IC50 [1]: 58 nM
- IC50 [2]: 149 nM
SMILES: Cc1cncc2cccc(S(=O)(=O)N3CCCNC[C@@H]3C)c12 [H-1152]
